Our source for the IC50 values is patent EP4831173A1, “TYK2 INHIBITOR AND USE THEROF” (dated 2026).

By UniProt entry, the sequences of proteins in these tests, tags left out. Residues count along the entry.
UniProt P29597, whole entry: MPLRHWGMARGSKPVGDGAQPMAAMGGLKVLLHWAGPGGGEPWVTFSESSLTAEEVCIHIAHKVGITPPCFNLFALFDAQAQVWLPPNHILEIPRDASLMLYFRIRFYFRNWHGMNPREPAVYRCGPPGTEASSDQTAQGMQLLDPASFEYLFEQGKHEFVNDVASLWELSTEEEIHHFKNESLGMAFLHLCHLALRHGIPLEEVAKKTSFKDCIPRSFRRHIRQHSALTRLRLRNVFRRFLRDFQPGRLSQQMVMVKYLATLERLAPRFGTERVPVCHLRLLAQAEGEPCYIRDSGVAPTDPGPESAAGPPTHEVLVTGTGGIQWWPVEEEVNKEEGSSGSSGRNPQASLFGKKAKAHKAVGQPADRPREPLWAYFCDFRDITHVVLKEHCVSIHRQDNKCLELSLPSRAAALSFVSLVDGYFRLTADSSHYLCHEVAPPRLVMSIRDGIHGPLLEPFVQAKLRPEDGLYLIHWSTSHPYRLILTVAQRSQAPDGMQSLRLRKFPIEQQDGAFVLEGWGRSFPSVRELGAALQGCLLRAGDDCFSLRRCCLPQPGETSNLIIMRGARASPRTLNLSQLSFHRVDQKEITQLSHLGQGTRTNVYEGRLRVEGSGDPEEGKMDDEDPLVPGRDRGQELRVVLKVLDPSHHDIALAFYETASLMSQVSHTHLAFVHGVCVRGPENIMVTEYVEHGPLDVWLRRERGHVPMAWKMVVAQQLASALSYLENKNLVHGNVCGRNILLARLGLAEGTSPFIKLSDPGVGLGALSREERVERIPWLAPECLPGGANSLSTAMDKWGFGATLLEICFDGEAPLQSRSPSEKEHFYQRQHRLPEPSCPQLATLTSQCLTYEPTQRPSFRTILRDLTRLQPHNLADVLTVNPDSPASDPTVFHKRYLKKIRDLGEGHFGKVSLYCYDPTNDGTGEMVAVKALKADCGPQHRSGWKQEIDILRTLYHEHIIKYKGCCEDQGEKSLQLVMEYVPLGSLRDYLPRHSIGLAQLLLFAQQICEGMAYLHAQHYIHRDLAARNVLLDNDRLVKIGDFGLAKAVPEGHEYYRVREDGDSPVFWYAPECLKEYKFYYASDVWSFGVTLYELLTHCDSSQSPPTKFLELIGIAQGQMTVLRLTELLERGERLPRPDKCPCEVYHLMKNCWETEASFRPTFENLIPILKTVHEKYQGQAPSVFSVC
UniProt P29597, 589-875 limits assumed: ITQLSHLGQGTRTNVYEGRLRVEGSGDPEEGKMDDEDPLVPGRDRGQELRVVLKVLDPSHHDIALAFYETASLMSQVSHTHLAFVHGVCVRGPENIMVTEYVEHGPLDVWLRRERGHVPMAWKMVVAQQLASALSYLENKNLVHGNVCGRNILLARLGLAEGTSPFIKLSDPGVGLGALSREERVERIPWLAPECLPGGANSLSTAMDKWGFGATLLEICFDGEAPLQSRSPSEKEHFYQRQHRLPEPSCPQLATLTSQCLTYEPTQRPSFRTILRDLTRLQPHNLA
UniProt P29597, 897-1176 limits assumed: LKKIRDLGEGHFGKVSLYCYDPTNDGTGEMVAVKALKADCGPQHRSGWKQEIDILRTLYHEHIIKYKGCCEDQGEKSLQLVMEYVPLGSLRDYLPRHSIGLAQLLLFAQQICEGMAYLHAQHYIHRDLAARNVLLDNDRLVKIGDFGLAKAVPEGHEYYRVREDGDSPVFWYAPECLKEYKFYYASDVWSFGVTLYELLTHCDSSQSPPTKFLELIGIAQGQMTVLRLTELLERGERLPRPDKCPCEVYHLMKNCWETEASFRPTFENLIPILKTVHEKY
UniProt P23458, whole entry partner: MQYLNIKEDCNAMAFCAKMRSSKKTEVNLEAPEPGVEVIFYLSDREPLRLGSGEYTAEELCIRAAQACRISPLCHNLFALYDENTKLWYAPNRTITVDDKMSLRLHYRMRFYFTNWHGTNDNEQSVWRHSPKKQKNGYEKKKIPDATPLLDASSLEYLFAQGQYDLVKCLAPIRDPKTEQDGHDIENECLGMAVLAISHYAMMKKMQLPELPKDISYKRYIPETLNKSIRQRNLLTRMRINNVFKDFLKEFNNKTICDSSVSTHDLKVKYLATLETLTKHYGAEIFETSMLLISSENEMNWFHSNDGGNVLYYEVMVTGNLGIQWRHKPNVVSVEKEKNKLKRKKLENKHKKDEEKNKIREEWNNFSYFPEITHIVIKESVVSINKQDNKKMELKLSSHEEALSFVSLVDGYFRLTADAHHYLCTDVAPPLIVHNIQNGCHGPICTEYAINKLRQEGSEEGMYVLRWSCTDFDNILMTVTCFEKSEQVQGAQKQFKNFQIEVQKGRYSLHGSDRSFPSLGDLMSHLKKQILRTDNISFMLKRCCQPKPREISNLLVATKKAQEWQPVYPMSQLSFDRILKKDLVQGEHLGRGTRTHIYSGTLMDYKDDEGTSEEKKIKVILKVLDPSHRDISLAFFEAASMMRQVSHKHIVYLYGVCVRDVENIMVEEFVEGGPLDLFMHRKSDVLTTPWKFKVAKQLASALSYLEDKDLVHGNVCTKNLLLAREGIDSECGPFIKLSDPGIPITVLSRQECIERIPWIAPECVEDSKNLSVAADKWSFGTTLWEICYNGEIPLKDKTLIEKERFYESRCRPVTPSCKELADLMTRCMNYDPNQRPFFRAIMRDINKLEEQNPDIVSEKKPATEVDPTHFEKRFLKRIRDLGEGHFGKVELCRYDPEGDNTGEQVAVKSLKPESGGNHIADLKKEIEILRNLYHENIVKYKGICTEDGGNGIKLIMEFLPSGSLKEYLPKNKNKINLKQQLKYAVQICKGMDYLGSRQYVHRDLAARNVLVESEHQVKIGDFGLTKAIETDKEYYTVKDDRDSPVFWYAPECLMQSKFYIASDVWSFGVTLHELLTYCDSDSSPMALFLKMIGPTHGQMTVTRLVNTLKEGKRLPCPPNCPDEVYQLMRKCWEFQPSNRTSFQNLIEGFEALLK
UniProt P23458, 875-1153 limits assumed: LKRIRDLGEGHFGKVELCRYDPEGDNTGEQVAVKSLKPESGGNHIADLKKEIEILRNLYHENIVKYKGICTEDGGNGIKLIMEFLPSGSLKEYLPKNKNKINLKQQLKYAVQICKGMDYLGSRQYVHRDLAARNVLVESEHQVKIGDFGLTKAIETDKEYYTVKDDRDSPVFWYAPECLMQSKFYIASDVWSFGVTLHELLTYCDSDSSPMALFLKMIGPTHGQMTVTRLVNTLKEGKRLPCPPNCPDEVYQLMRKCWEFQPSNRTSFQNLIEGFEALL
UniProt O60674, 849-1124 limits assumed: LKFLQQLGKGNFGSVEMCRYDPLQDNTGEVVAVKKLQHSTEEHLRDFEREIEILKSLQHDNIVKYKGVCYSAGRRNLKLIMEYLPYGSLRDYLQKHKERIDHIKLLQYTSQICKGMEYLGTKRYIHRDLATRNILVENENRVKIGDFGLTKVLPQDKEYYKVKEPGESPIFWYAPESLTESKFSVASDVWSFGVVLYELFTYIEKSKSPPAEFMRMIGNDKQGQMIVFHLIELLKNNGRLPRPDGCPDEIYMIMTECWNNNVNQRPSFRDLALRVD
UniProt P52333, 822-1111 limits assumed: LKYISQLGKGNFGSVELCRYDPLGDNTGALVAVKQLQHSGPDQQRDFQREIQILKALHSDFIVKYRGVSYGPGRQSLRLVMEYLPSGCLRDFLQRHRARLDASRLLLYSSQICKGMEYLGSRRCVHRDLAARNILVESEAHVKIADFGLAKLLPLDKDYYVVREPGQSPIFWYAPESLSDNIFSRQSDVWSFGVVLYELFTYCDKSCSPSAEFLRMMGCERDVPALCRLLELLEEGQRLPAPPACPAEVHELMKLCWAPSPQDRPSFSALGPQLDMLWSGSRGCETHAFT

pIC50: −log10 of the molar value.

One assay deals with TYK2/JAK1 (Homo sapiens, UniProt P29597). Kind of assay: TYK2/JAK1 cell activity by IFNα2B stimulation, SEAP reporter in HEK-blue IFNα/β cells. The conditions noted are these: HEK-blue IFNα/β cell line, human IFNα2B 1 U/mL, 24 hours, SEAP absorbance at 630 nm. As for the experimental part:
Experimental Example 3: Analysis of TYK2/JAKI cell activity by IFNα2B stimulation
An inhibition effect of TYK2/JAK1 activity of the test compound was analyzed using HEK-blue IFNα/β cell line (InvivoGen) that secretes SEAP (Secreted embryonic alkaline phosphatase) depending on the degree of cell stimulation. Cell culture and evaluation were performed according to the manufacturer's recommendations, and the method thereof is as follows: Cells cultured in a growth medium (Dulbecco's Modified Eagle Medium, 10% Fetal bovine serum, 1% Penicillin-Streptomycin, 100 ug/mL Normocin, 10 mg/mL Blasticidin, […] Zeocin) were collected and resuspended in a test medium (DMEM, 10% FBS, 1% Penicillin-Streptomycin), and 3.5x10^4 cells (160 uL) were dispensed into each well of a 96-well plate. After culturing for 24 hours in a 37°C CO2 incubator, 20 uL of a test compound or control compound (Deucravacitinib) diluted in the test medium was added, and then incubated at 37°C for 1 hour and 30 minutes. Next, 20 uL of human IFNα2B recombinant protein (PBL assay science) prepared with the test medium was added to each well (final concentration 1 U/mL) and then incubated at 37°C for 24 hours. 20 uL and 180 uL of cell supernatant were mixed with a QUANTI-blue reagent (InvivoGen) and then reacted at 37°C for 20-30 minutes. An absorbance at 630 nm was measured using Synergy neo (BioTek Instruments, Inc.). […] [Table 3] Result of TYK2/JAK1 cell activity by IFNα2B stimulation test
With `CC(C)COc1cc(-c2cn(C)c3cnc(NC(N)=O)cc23)nn(C(C)C(F)(F)F)c1=O` (stereo not drawn), the pIC50 was more than 7.30.

Regarding `COC1CN(c2cc(-c3cn(C)c4cnc(NC(C)=O)cc34)nn([C@@H](C)C(F)(F)F)c2=O)C1`, the pIC50 was more than 7.30.

Take `CC(=O)Nc1cc2c(-c3cc(OCC(C)C)c(=O)n(C(C)C(F)(F)F)n3)cn(C)c2cn1` (stereo not drawn): the pIC50 was more than 7.30.

On to `CC(=O)Nc1cc2c(-c3cc(N4CCC5(COC5)C4)c(=O)n(C4(C)CCC4)n3)cn(C)c2cn1`, for which the pIC50 is more than 7.30.

For the compound `COC1CN(c2cc(-c3cn(C)c4cnc(NC(N)=O)cc34)nn(C3(C)CCOC3)c2=O)C1` (stereo not drawn), the pIC50 is more than 7.30.

The next assay deals with JAK1 JH1 (Homo sapiens, UniProt P23458). In words: JAK kinase domain activity, ADP-Glo kinase assay, JAK1. The conditions noted are these: read-out: JAK1 JH1 IC50, substrate IRS1 (Y608) peptide, top concentration 10000 nM. The protocol: (§1) Experimental Example 2: JAK Kinase Domain Activity Analysis
(§2) Kinase domain activity of the JAK family was analyzed using the ADP-Glo kinase assay kit (Promega). The evaluation of the compound was performed according to the manufacturer's protocol, and the method thereof is as follows:
(§3) A 10 mM test compound was diluted to 0.5 mM using DMSO in a 96-well plate, and then 5-fold serial dilutions were performed in DMSO. The diluted compound was diluted to 1/10 with 1x reaction buffer (composition) to prepare a 5x compound solution. 5 uL of the 5x compound solution was mixed with a substrate prepared in the reaction buffer (40 mM Tris, 20 mM MgCl2 and 0.1 mg/ml BSA, 0.05 mM DTT, pH 7.5), and an ATP mixture (10 uL). Next, an enzyme reaction was initiated by adding the JAK family enzyme (10 uL) prepared in the reaction buffer. A short rotation was performed to settle all the solution to the bottom of the plate. The final concentrations of the test compounds in the reaction mixture were 10000, 2000, 400, 80, 16, and 3.2 nM. The concentrations of the control compounds (Brepocitinib or Tofacitinib) were 10 times lower. The enzyme reaction was performed at 25°C for 1 hour. 25 uL of ADP-Glo reagent was added and the reaction was performed at 25 °C for 1 hour. The reaction mixed 50 uL of kinase detection reagent and was stopped, and a luminescence signal was measured using Synergy neo (BioTek Instruments, Inc.). […]
Background: ADP-Glo first removes unused ATP, then detects ADP through luciferase.
Regarding `CC(C)COc1cc(-c2cn(C)c3cnc(NC(N)=O)cc23)nn(C(C)C(F)(F)F)c1=O` (stereo not drawn), the pIC50 is 6.09.

With `COC1CN(c2cc(-c3cn(C)c4cnc(NC(C)=O)cc34)nn([C@@H](C)C(F)(F)F)c2=O)C1`, the pIC50 was 5.03.

On to `CC(=O)Nc1cc2c(-c3cc(OCC(C)C)c(=O)n(C(C)C(F)(F)F)n3)cn(C)c2cn1` (stereo not drawn), for which the pIC50 is 5.18.

Regarding `CC(=O)Nc1cc2c(-c3cc(N4CCC5(COC5)C4)c(=O)n(C4(C)CCC4)n3)cn(C)c2cn1`, the pIC50 was less than 5.00.

For the compound `COC1CN(c2cc(-c3cn(C)c4cnc(NC(N)=O)cc34)nn(C3(C)CCOC3)c2=O)C1` (stereo not drawn), the pIC50 was 5.13.

The target of a further assay is JAK2 JH1 (Homo sapiens, UniProt O60674). In words: JAK kinase domain activity, ADP-Glo kinase assay, JAK2. The following applies: read-out: JAK2 JH1 IC50, substrate IGF1R peptide, top concentration 10000 nM. The protocol: as §1, §2, §3
In the case of `CC(C)COc1cc(-c2cn(C)c3cnc(NC(N)=O)cc23)nn(C(C)C(F)(F)F)c1=O` (stereo not drawn), the pIC50 was 6.26.

Take `COC1CN(c2cc(-c3cn(C)c4cnc(NC(C)=O)cc34)nn([C@@H](C)C(F)(F)F)c2=O)C1`: the pIC50 is 5.70.

As for `CC(=O)Nc1cc2c(-c3cc(OCC(C)C)c(=O)n(C(C)C(F)(F)F)n3)cn(C)c2cn1` (stereo not drawn), the pIC50 was 5.55.

Consider `CC(=O)Nc1cc2c(-c3cc(N4CCC5(COC5)C4)c(=O)n(C4(C)CCC4)n3)cn(C)c2cn1`, for which the pIC50 was 5.62.

Regarding `COC1CN(c2cc(-c3cn(C)c4cnc(NC(N)=O)cc34)nn(C3(C)CCOC3)c2=O)C1` (stereo not drawn), the pIC50 was 5.66.

A further assay has as its target JAK3 JH1 (Homo sapiens, UniProt P52333). Kind of assay: JAK kinase domain activity, ADP-Glo kinase assay, JAK3. The conditions noted are these: read-out: JAK3 JH1 IC50, substrate Poly (4:1 Glu-Tyr) peptide, top concentration 10000 nM. As for the experimental part:
as §1, §2, §3
As for `CC(C)COc1cc(-c2cn(C)c3cnc(NC(N)=O)cc23)nn(C(C)C(F)(F)F)c1=O` (stereo not drawn), the pIC50 was 5.46.

Turning to `COC1CN(c2cc(-c3cn(C)c4cnc(NC(C)=O)cc34)nn([C@@H](C)C(F)(F)F)c2=O)C1`, the pIC50 was less than 5.00.

On to `CC(=O)Nc1cc2c(-c3cc(OCC(C)C)c(=O)n(C(C)C(F)(F)F)n3)cn(C)c2cn1` (stereo not drawn), for which the pIC50 is less than 5.00.

Consider `CC(=O)Nc1cc2c(-c3cc(N4CCC5(COC5)C4)c(=O)n(C4(C)CCC4)n3)cn(C)c2cn1`, for which the pIC50 was less than 5.00.

In the case of `COC1CN(c2cc(-c3cn(C)c4cnc(NC(N)=O)cc34)nn(C3(C)CCOC3)c2=O)C1` (stereo not drawn), the pIC50 was 5.40.

The next assay addresses TYK2 pseudokinase domain (Homo sapiens, UniProt P29597). In words: TYK2 JH2 pseudokinase domain binding affinity, fluorescence polarization (BPS Bioscience inhibitor screening kit). The following applies: read-out: TYK2 JH2 IC50; polarized fluorescence, 25°C, 1 hour. As for the experimental part: Experimental Example 1: Analysis of domain binding affinity to TYK2 pseudokinase
In order analyze the binding affinity of a test compound to the TYK2 pseudokinase domain, a polarized fluorescence-based TYK2 JH2 Pseudokinase Domain Inhibitor Screening Assay Kit (BPS bioscience) was used. The evaluation of the compound was performed according to the manufacturer's protocol, and the method thereof is as follows:
The test compound or control compound (Deucravacitnib) was serially diluted in DMSO, and then diluted 1/10 with distilled water to prepare 10x compound solution. After mixing the compound solution with Probe 1 prepared with a binding reaction buffer (JH2 binding buffer), a reaction was performed at 25°C for 10 minutes. Next, the reaction was initiated by adding a TYK2 pseudokinase domain enzyme prepared with the binding reaction buffer. The reaction was performed in a black 384-well plate at 25 °C for 1 hour. Polarized fluorescence was measured using Synergy neo (BioTek Instruments, Inc.).
In general terms: Polarisation of emitted light reports the rotation of a fluorescent probe.
On to `CC(C)COc1cc(-c2cn(C)c3cnc(NC(N)=O)cc23)nn(C(C)C(F)(F)F)c1=O` (stereo not drawn), for which the pIC50 was 7.66.

For `COC1CN(c2cc(-c3cn(C)c4cnc(NC(C)=O)cc34)nn([C@@H](C)C(F)(F)F)c2=O)C1`, the pIC50 was 7.59.

With `CC(=O)Nc1cc2c(-c3cc(OCC(C)C)c(=O)n(C(C)C(F)(F)F)n3)cn(C)c2cn1` (stereo not drawn), the pIC50 was 7.12.

On to `CC(=O)Nc1cc2c(-c3cc(N4CCC5(COC5)C4)c(=O)n(C4(C)CCC4)n3)cn(C)c2cn1`, for which the pIC50 was 7.42.

On to `COC1CN(c2cc(-c3cn(C)c4cnc(NC(N)=O)cc34)nn(C3(C)CCOC3)c2=O)C1` (stereo not drawn), for which the pIC50 is 7.68.

The target in the next assay is TYK2 JH1 (Homo sapiens, UniProt P29597). In words: JAK kinase domain activity, ADP-Glo kinase assay, TYK2. The conditions noted are these: read-out: TYK2 JH1 IC50, substrate IRS1 (Y608) peptide, top concentration 10000 nM. The protocol:
as §1, §2, §3
On to `CC(C)COc1cc(-c2cn(C)c3cnc(NC(N)=O)cc23)nn(C(C)C(F)(F)F)c1=O` (stereo not drawn), for which the pIC50 was 5.83.

As to `COC1CN(c2cc(-c3cn(C)c4cnc(NC(C)=O)cc34)nn([C@@H](C)C(F)(F)F)c2=O)C1`, the pIC50 is less than 5.00.

As for `CC(=O)Nc1cc2c(-c3cc(OCC(C)C)c(=O)n(C(C)C(F)(F)F)n3)cn(C)c2cn1` (stereo not drawn), the pIC50 is less than 5.00.

As to `CC(=O)Nc1cc2c(-c3cc(N4CCC5(COC5)C4)c(=O)n(C4(C)CCC4)n3)cn(C)c2cn1`, the pIC50 was less than 5.00.

For the compound `COC1CN(c2cc(-c3cn(C)c4cnc(NC(N)=O)cc34)nn(C3(C)CCOC3)c2=O)C1` (stereo not drawn), the pIC50 is less than 5.00.
